According to article PMC9027337, “Influence of Experimental End Point on the Therapeutic Efficacy of Essential and Additional Antidotes in Organophosphorus Nerve Agent-Intoxicated Mice” (2022):

Test system: lethal effects of soman in mice
Conditions: LD50 soman 6 h end point/24 h end point; atropine 10 mg/kg, HI-6 25 mg/kg i.m.

CN1[C@@H]2CC[C@H]1C[C@@H](OC(=O)C(CO)c1ccccc1)C2 (stereo partly shown)
Protective Ratio B: 1.00
